scFv variants of Ab-14 (light chain) against a SARS-CoV-2 spike peptide

The measurements come from Li et al. 2023 (doi:10.1038/s41467-023-39022-2) through the FLAb antibody collection.

The target is the same throughout: PDVDLGDISGINAS, from the HR2 region of SARS-CoV-2 spike.

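The parent was found by panning a naive human phage display library on the peptide. This is the validation round: designs drawn from the data on random variants, tested in the same kind of assay. Their group label is 14L_En_HC (En: ensemble of fine-tuned language models; HC: hill climbing; a sequence that several methods proposed may carry one label only). Affinity was read by AlphaSeq, a pooled yeast mating assay with surface-displayed partners. After mating in shaken culture at 30 °C for 16 h, diploids were selected and their barcode pairs sequenced. Scores were corrected for input abundance and mapped to Kd with protein pairs of known affinity run in the same pool. Mating was done six times.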

Parent scFv Ab-14: VH joined to VL by a (GGGGS)3 linker. Changes lie in the light chain CDRs alone.
VH: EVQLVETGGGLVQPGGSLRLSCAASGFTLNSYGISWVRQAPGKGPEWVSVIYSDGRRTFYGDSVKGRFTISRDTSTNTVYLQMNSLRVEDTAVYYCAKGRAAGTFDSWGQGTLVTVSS
VL: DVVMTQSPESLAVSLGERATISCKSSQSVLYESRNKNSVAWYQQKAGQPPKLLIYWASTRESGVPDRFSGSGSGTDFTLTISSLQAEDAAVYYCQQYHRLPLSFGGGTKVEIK

Each variant is given by its three light chain CDRs, as the data file delimits them; those of the parent are KSSQSVLYESRNKNSVA, WASTRES, QQYHRLPLS. Scale: log10 of Kd in nM, estimated from mating counts; low values are strong binders. "ND" means that the variant was in the library but no mating with the target was seen in that replicate; the authors take this as a sign of poor binding, and no number exists. Nonspecific signal, from three strains lacking the peptide, appeared in 4% of pairings of all light chain designs, centred on 2.64 (5% of these signals below 1.59); values are not corrected for it. The control count says in how many pairings with the empty strains this scFv gave a signal, with their mean in brackets. The authors' rule: three or more of the six replicates give a measured affinity, fewer mean a poor binder. A sequence measured in both rounds can read differently, since the two assays cover different ranges. The parent sequence was in this pool as ten entries: three were never detected, three once, and four in most replicates, with averages from 0.34 to 2.37.

CDR-L1	CDR-L2	CDR-L3	log10 Kd (nM) by replicate	control signals
KIGMQVTYESTMNNAIA	QMTTREE	QQYHRLPLS	0.27 0.34 0.55 0.37 0.56 0.59	0/18
MISDLTMYGSRNVQSVA	DLSTRGS	QQYDRLPLS	0.50 0.46 0.59 0.30 0.47 0.71	4/18 (2.77)
KISQSILFMSGNLNAIA	QMEMREE	QQYHRLPLS	0.93 0.82 0.68 0.97 0.74 0.75	1/18 (3.39)
TIGPMLMTESHNRNNVA	GMQTRER	QQYHRLPLS	0.09 0.75 0.87 -0.56 0.18 0.02	0/18
TLGDVTRMESQKKNSIA	DMSNRAD	QQYHRLPLS	0.07 -0.06 -0.01 -0.04 -0.06 0.11	2/18 (3.62)
KLREVQHVETKQRNNVA	DNDTREY	QDYYRLPLS	2.42 3.12 ND 2.88 2.57 2.84	0/18
KISGYLNKESKEKNSVA	EMVNRES	QQYDRLPLS	1.18 0.73 1.07 0.85 0.67 1.53	0/18
TISQSWNMTSRGKNSVA	QAEMREE	QQYDRLPLS	2.26 2.71 2.19 2.81 1.55 1.67	1/18 (2.67)
KLRQSVHIESFNKNNVA	EMTTRES	QSYDRLPLS	1.28 1.06 0.79 0.88 1.03 1.30	1/18 (2.77)
KITGMWTFESHNRSNIA	EESTRED	QSYHRLPLS	1.95 1.52 1.98 1.91 ND 2.05	2/18 (2.59)
KLSVSTNYLSVNKNSVA	EMSTRES	QQYDRLPLS	0.94 1.38 0.80 0.53 0.36 0.56	0/18
TISTLMRYESSLKNAIA	NAQTRES	QQYHRLPIS	1.12 1.28 0.85 0.84 0.65 1.02	0/18
KLSMSMLMESRHKNSVA	ENSTREE	QHYHRLPLS	ND 1.41 1.52 1.16 0.84 1.40	0/18
MISDLMLQGSRAKNPIA	NAETREY	QQYHRLPLE	0.98 0.66 0.65 0.59 0.55 0.78	1/18 (3.32)
TIAQSMLYMSNLKNSIA	QAETRES	QQYHRLPIS	1.30 0.39 0.68 1.13 1.28 1.62	0/18
ILYDQVGTLSRNKNSVA	DNSTRES	QQYDRLPLS	ND 1.84 2.11 2.71 1.85 ND	0/18
MLSDFVKMGSRNTNSVA	DNSTRGS	QQYDRLPLS	2.73 1.80 1.49 ND 1.58 2.39	2/18 (2.09)
TLTQVTMVESYIKNSVA	QASTRLE	QDYHRLPLS	1.03 1.26 1.15 0.82 1.27 0.92	1/18 (2.76)
HLSDTVMQGSYYYNSVA	QESTRAD	QQYHRLPLS	0.29 0.56 0.82 0.63 0.89 0.81	0/18
KLRQSIHIESFNKNNVA	EMTTRES	QSYDRLPLS	1.19 1.57 1.22 1.08 1.56 1.65	2/18 (2.42)
MLSDLVKMGSRNTNSVA	DNSMRGS	QQYDRLPLS	1.06 0.77 0.32 0.64 0.69 0.61	0/18
MFSQLVYTGSRTKNAVA	QASTREN	QQYHRLPLV	1.93 0.85 1.01 1.02 1.05 1.39	0/18
KISQMSTIESITHNSVA	QTSTRES	QQYDRLPLS	0.68 0.76 0.61 0.59 0.72 0.78	1/18 (2.79)
MFSQLFMYGSRNYNSVA	QASTRET	QQYHRLPLI	1.78 1.45 2.17 ND 2.02 1.74	0/18
KISQMYRYEQQNHSSIA	EANTREE	QSYHRLPLS	1.53 0.75 1.70 1.30 1.03 0.96	0/18
MISGSVMSESRLKNSVA	QTTMRES	QQYDRLPLS	0.99 1.90 2.71 1.58 ND 1.76	0/18
HISQTVGMTSHNKNSVA	ENSTRED	QQYDRLPLS	ND 2.71 1.55 2.60 2.82 ND	1/18 (2.31)
MFSQLFMYGSRNVNSVA	QASTRES	QQYDRLPLI	1.49 1.64 1.06 1.31 1.27 1.67	0/18
KLSMSYRYESEVKNSIA	ELVTRMS	QQYHRLPLS	1.39 1.36 1.12 1.91 1.57 1.42	0/18
IISGMMLMESRNKNSVA	NAETREY	QHYDRLPLS	2.62 1.75 1.75 1.11 2.57 1.72	1/18 (2.42)

The closing 5 entries, repeated:

CDR-L1,CDR-L2,CDR-L3,log10 Kd (nM) by replicate,control signals
MISGSVMSESRLKNSVA,QTTMRES,QQYDRLPLS,0.99 1.90 2.71 1.58 ND 1.76,0/18
HISQTVGMTSHNKNSVA,ENSTRED,QQYDRLPLS,ND 2.71 1.55 2.60 2.82 ND,1/18 (2.31)
MFSQLFMYGSRNVNSVA,QASTRES,QQYDRLPLI,1.49 1.64 1.06 1.31 1.27 1.67,0/18
KLSMSYRYESEVKNSIA,ELVTRMS,QQYHRLPLS,1.39 1.36 1.12 1.91 1.57 1.42,0/18
IISGMMLMESRNKNSVA,NAETREY,QHYDRLPLS,2.62 1.75 1.75 1.11 2.57 1.72,1/18 (2.42)